Test results taken from PubChem BioAssay AID720707 (National Center for Advancing Translational Sciences (NCATS), 2013).
The list shows a part of the results, in another mix than the full data. Some tests of the compounds listed are not included; inactive here does not mean inactive elsewhere. Calls of active or inactive are those of the source. The call rests on the fitted dose curve; in most records, active means well fitted activation curve with a large enough effect; inconclusive means small, poorly fitted or top-dose-only effect; inactive means no such curve, though single readings can be large or run the other way.

The chains behind the UniProt entries cited, without tags or fusion partners.
UniProt O95398, whole entry: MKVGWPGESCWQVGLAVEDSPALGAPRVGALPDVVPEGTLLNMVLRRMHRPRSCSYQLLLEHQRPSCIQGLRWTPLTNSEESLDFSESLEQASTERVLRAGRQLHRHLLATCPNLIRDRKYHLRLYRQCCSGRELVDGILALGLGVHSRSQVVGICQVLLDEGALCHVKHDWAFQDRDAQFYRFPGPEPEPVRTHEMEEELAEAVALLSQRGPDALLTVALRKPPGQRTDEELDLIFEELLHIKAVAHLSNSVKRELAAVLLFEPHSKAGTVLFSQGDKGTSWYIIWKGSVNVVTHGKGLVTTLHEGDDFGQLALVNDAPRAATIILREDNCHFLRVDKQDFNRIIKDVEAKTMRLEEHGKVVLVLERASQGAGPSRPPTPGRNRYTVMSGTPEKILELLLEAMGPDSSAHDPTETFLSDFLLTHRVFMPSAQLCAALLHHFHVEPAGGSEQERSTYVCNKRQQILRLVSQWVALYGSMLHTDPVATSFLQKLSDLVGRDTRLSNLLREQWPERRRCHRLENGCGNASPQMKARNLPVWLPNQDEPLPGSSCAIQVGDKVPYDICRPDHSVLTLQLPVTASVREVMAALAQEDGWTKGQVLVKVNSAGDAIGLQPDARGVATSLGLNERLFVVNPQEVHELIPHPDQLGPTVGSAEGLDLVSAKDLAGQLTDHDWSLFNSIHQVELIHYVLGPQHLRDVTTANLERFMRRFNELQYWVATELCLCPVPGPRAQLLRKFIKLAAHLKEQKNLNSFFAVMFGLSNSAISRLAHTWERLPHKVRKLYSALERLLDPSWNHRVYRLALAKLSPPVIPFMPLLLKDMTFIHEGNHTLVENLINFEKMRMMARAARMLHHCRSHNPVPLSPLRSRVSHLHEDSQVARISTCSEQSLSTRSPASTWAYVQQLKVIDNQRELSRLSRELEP

The compounds below were run against Rap guanine nucleotide exchange factor 3 (Homo sapiens) (UniProt O95398) (assay: qHTS for Agonist of cAMP-regulated guanine nucleotide exchange factor 3 (EPAC1): primary screen). Conditions: biochemical assay, 100% = response to 6.5 mM cAMP; at 154 µM (top of the series).
Excerpt: In multi-cellular eukaryotic organisms, the effects of cAMP are transduced by two ubiquitously-expressed intracellular cAMP receptors, the classic protein kinase A/cAMP-dependent protein kinase (PKA/cAPK) and the more recently discovered exchange protein directly activated by cAMP/cAMP-regulated guanine nucleotide exchange factor (EPAC/cAMP-GEF). Both PKA and EPAC are ubiquitously expressed in all tissues, and an increase in intracellular cAMP levels will lead to the activation of both PKA and EPAC. Therefore, careful dissections of the individual role and relative contribution of EPAC and PKA within the overall cAMP signaling in various model systems are critical for further elucidating the mechanism of cAMP signaling. To date no EPAC-specific antagonists and agonist, as well as isoform-specific agonists have been reported, and developing EPAC-specific pharmacological probes to determine the physiological functions that EPAC play in the overall cAMP-mediated signaling remains a major challenge within the research field. Furthermore, identified regulators of EPAC may lead to new mechanism-based therapeutic strategies specifically targeting the EPAC / cAMP-signaling components as EPAC has been implicated to play important roles in major human pathological conditions such as diabetes, heart disease, and cancer.
This qHTS will be used to screen the Molecular Libraries Small Molecule Repository (MLSMR) as a concentration-titration series using the NCGC unique quantitative screening (qHTS) platform to find activators for EPAC1. In addition, this assay will also be used as a counterscreen for the EPAC2 qHTS. This fluorescent based assay is developed and validated for EPAC1 that measures exchange using EPAC effector Rap1 complex with BODIPY-GDP, a GDP analog with a tethered fluorophores. Activators are identified by monitoring the change in fluorescence signal as the exchanged free BODIPY-GDP has a reduced fluorescence compared to Rap1-bound BODIPY-GDP. Increase in signal (activation) is the desired outcome for the EPAC1 agonist while no activity in this assay is desired for the EPAC2 agonist counterscreen.
[1] de Rooij, J., Zwartkruis, F. J., Verheijen, M. H., Cool, R. H., Nijman, S. M., Wittinghofer, A., and Bos, J.L. (1998) Nature 396, 474-477
NIH Chemical Genomics Center [NCGC]
NIH Molecular Libraries Probe Centers Network [MLPCN]
Assay Submitter (PI): Xiaodong Cheng, The University of Texas Medical Branch
Briefly, three uL of reagents (100 nM EPAC1, 250 nM RAP1B-BODIPY-GDP, 50 uM GDP) were dispensed into a 1536-well Greiner black solid-bottom medium binding assay plate. Controls and test compounds (23 nL) were transferred to the plate via a Kalypsys pin tool equipped with a 1536-pin array. The plates were centrifuged at 1,000 rpm for 15 seconds followed by 5 minute incubation at room temperature. The assay plates were read at 5 minute intervals for 30 minutes in the ViewLux plate reader using 480nm excitation and 540nm emission filters. The results were normalized to the agonist positive control of 6.5 mM cAMP.
Further: nearly all actives have a fitted effect of over 60% in size.

| Compound | activation |
| --- | --- |
| Cc1ccc(C(=O)NCC2(N3CCCCC3)CCCCC2)cc1 | inactive: -4.17% |
| CC(C)N1C(=O)CC2(CCN(CCOC(=O)C(O)(c3ccccc3)c3ccccc3)CC2)C1=O | inactive: -5.01% |
| CCN(CC)CC(C)C(C)OC(=O)C(O)(c1ccccc1)c1ccccc1 (stereo unspecified) | inactive: 0.528% |
| COc1cc(SC)ccc1C(=O)NCC1(N(C)C)CCCCC1 | inactive: 14.1% |
| CN1[C@@H]2CC[C@H]1CC(OC(=O)C(O)(c1ccccc1)c1ccccc1)C2 (stereo partly specified) | inactive: -6.6% |
| O=C(NCC1(N2CCCCC2)CCCCC1)c1cc([N+](=O)[O-])ccc1Cl | inactive: -7.7% |
| CCN1CCCC(OC(=O)C2(O)c3ccccc3C=Cc3ccccc32)C1 (stereo unspecified) | inactive: 4.82% |
| Cc1cc(C(=O)NCC2(N3CCCCC3)CCCCC2)ccc1[N+](=O)[O-] | inactive: 6.62% |
| O=C(NCC1(N2CCCCC2)CCCCC1)c1cccc(Br)c1 | inactive: 4.62% |
| COc1ccc(C(=O)NCC2(N(C)C)CCCCC2)cc1 | inactive: -7.78% |
| C=CCN1CCN(CCOC(=O)C(O)(c2ccccc2)c2ccccc2)CC1 | inactive: -4.31% |
| O=C(NCC1(N2CCCCC2)CCCCC1)c1cc(F)c(F)cc1Cl | inactive: 6.15% |
| Cc1ccccc1C(=O)NCC1(N2CCCCC2)CCCCC1 | inactive: 13.1% |
| CN(C)c1ccc(C(=O)NCC2(N(C)C)CCCCC2)cc1 | inactive: 6.59% |
| CN(C)C1CCCC1OC(=O)C(O)(c1ccccc1)c1ccccc1 (stereo unspecified) | inactive: -6.31% |
| O=C(NCC1(N2CCCCC2)CCCCC1)c1cccc(Cl)c1 | inactive: 6.14% |
| COc1cccc(C(=O)NCC2(N3CCCCC3)CCCCC2)c1 | inactive: 1.14% |
| COc1ccc(Cl)cc1C(=O)NCC1(N(C)C)CCCCC1 | inactive: 2.64% |
| COc1cc(C(=O)NCC2(N(C)C)CCCCC2)c([N+](=O)[O-])cc1OC | inactive: 7.9% |
| CN(C)C1(CNC(=O)c2ccc(Br)cc2)CCCCC1 | inactive: 4.56% |
| CN(C)c1cccc(C(=O)NCC2(N(C)C)CCCCC2)c1 | inactive: 2.1% |
| CC(C)Oc1ccc(C(=O)NCC2(N(C)C)CCCCC2)cc1 | inactive: 4.22% |
| O=C(OCCN1CCCC1)C(O)(c1ccccc1)c1ccccc1 | inactive: 8.54% |
| COc1ccc(Br)c(C(=O)NCC2(N3CCCCC3)CCCCC2)c1 | inactive: -1.86% |
| C=C(C)C#CC(O)(C(=O)OC1CCN(C)CC1)c1ccccc1 (stereo unspecified) | inactive: -8.91% |
| O=C(OC1CN2CCC1CC2)C(CO)(c1ccccc1)c1ccccc1 (stereo unspecified) | inactive: 4.3% |
